Where two headings read alike, the source gives them in different places.
How the values were obtained:
BTK = BTK (Homo sapiens, UniProt Q06187); assay: In vitro BTK inhibition (no preincubation); format: biochemical
[1] = target: BTK protein levels in RAMOS cells (Homo sapiens, UniProt Q06187); assay: Total BTK degradation assay (HTRF) in RAMOS cells; format: cell-based

By UniProt entry, the sequences of proteins in these tests, tags left out.
UniProt Q06187, whole entry: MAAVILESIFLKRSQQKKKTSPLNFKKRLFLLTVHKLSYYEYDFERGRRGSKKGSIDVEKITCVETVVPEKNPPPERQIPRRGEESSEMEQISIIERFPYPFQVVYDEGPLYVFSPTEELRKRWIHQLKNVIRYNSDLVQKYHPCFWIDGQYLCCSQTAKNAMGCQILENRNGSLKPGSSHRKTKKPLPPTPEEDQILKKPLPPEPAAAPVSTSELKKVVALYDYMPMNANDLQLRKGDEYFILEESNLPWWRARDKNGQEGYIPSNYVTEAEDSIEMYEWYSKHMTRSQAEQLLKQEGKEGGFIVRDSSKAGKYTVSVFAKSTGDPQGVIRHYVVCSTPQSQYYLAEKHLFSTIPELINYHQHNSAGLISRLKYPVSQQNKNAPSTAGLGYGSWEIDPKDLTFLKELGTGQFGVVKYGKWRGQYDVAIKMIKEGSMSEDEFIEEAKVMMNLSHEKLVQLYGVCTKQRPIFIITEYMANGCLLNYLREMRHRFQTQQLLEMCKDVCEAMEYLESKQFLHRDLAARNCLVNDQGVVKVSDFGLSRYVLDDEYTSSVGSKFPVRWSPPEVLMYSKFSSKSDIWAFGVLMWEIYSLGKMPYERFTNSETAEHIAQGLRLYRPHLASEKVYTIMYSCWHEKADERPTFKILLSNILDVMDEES

| Structure (SMILES) | IC50 (BTK; read-out: BTK (IC50), Table 17) [nM] | Percent residual BTK after 24 hours with test compound (5 μM) [1] [%] | IC50 (BTK; read-out: BTK (IC50), Table 18) [nM] |
| --- | --- | --- | --- |
| Nc1ncnc2c1c(-c1ccc(Oc3ccccc3)cc1)nn2[C@@H]1CCN(S(=O)(=O)c2c(F)c(F)c(F)c(F)c2F)C1 | 0.1 to 10 |  |  |
| COCCOc1ccc(Nc2ncc(F)c(Nc3cccc(NS(=O)(=O)c4c(F)c(F)c(F)c(F)c4F)c3)n2)cc1 |  | 63 | 100 to 1000 |

From patent US12559454B2, “Benzenesulfonamide derivatives and uses thereof” (2692372 Ontario, Inc., priority 2019, dated 2026)
